Test results from patent publication US4649911A, “Small particle aerosol generator for treatment of respiratory disease including the lungs” (Baylor College of Medicine, priority 1986, dated 1987).
Where two headings read alike, the source gives them in different places.

Conditions: for Aerosol Concentration: Table 1, reservoir drug concentration 15 mg/ml

NC(=O)c1ncn([C@@H]2O[C@H](CO)[C@@H](O)[C@H]2O)n1 [ribavirin]
output of drug in small particle aerosol (FIG. 7 apparatus, at 5 hours): 343 micrograms per liter | increase in aerosol output concentration (FIG. 7 apparatus, over 5 hours): 5.5% | Aerosol Concentration (nebulizer of FIG. 3): 120 µg/L | Aerosol Concentration (nebulizer of FIG. 7): 165 µg/L | Aerosol Concentration (nebulizer of FIGS. 1 & 2): 64 µg/L | higher aerosol output, FIG. 7 as compared to FIG. 3 (from spray factors): 37.5%
